Measurements from patent US20260201352.
Positions count from the first letter of the chain named.

T1: nanopore protein CsgG-Eco-(Y51A/F56Q/R97W/R192D-StrepII (C)), P0AEA2
T1 chain: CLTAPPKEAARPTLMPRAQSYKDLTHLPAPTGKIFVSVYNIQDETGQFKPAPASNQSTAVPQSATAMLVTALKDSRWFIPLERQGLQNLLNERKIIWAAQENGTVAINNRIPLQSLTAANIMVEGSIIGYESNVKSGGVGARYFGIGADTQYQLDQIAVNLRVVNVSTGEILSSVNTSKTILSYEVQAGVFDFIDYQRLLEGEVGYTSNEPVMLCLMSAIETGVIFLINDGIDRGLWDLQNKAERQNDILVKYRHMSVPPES

B1: BCH105-33 (protein)
chain: MKHDLSSATEEQRYIFTDFIKQAQLALKGDSDYEVFAIQGFAGSGKTWLSALIIDELLELGMKVAVTSPTHKAVRVSLNMLKNNGIDTNSPLMYPGTIHHFLNLKLDHGFADDGTADNCTTKAKLVVNKFNEALEYVDVLIVDEASMVSGELYDHALKTLGDRAKIILFIGDSYQLLPVDDEDSSIFLKDDIFHYKLTSVVRQAEDNIIIAKSQELIKAMDQKTYYPSVNDYFVNITEDTEGIKLLKSNVELFELYFSDFKDKMTGAYTNKVVNQFNEYIRYTLYQETKFIADKDELVFQETYTDSKGNIIVSNGEIIEVATAKLTTDIDKFKIWKIVSKKNELGEAVRFNVLDPSSYNEFNDLLDKYCADAKIAKGYDRSKAWKKYFKLKEKYAKVRYNFSSTIHKLQGSTYQNMYFDMRGLDYFYRMNRDNVLRLVYVGITRASDQVFILQD
B2: BCH105-72 (protein)
chain: B1 chain with S199K, E205D

Target: T1, nanopore protein …

Row | Protein | Speed (nt/s)
1 | B1 | 358 nt/s
2 | B2 | 365 nt/s
